Reference: paper PMC12464334, “Reprogramming of cancer metabolism via photoresponsive nano-PROTAC enhances pyroptosis-mediated immunotherapy” (Signal Transduction and Targeted Therapy, 2025)

Experiments:
[1] = orthotopic TNBC mice, i.v. administration
Procedure: BL imaging was conducted every 4 days following the intraperitoneal injection of D-luciferin. The tumor volumes and body weights were measured every 2 days. Mice with tumor volumes exceeding 500 mm^3 were considered deceased.

[2] = Procedure: The morphology in distilled water was observed via transmission electron microscopy (TEM; Philips). UV‒vis and fluorescence spectra were measured via a UV‒vis spectrometer (Agilent Technologies) and a fluorescence spectrometer (Hitachi), respectively. ROS generation was quantified via a bleaching assay using 1,3-diphenylisobenzofuran (DPBF; Cat. No. 105481; Sigma Aldrich).
[3] = intravenous, equivalent to 5 mg/kg VPF, ex vivo NIRF 3 h after administration, n = 3
[4] = carrier-free
[5] = intravenous, blood fluorescence, n = 5

VPF-KRRPIYPALAK-lonidamine [NanoTAC]
damage in normal tissues (H&E of major organs) [1]: no damage was observed in normal tissues | hydrodynamic diameter ([2]; DLS, Zetasizer): 73.58 ± 0.72 nm | zeta potential ([2]; Zetasizer, distilled water): 13.14 ± 1.59 mV | changes in average size or polydispersity index in mouse serum ([2]; over 4 days, DLS, n = 5): no significant changes in average size or polydispersity index | tumor accumulation, fold of NanoTAC over VPF [3]: 3.57 fold | drug-loading capacity, total [4]: 78.55% | drug-loading, PROTAC [4]: 49.14% | drug-loading, photosensitizer [4]: 29.41% | time for which detectable amounts remain in the blood [5]: up to 48 h | cytotoxicity with laser irradiation (4T1 cells; +L (40 mW, 500 s), CCK-8, n = 5, compared with NanoTAC (−L) and VPF (+L)): substantially greater cytotoxicity | cytotoxicity without photoirradiation (4T1 cells; −L, CCK-8, n = 5): minimal TNBC cell death
